Values quoted from earlier work in US5045452A, “Method for evaluating nephrotoxicity” (Brigham and Women's Hospital, priority 1988, dated 1991).

Tested on: N-acetyl-beta-D-glucosaminidase
Settings: exposed workers

mercury
urinary acetyl glucosaminidase excretion: elevated
